Experimental findings from ChEMBL document CHEMBL3098022, “Multifunctional cholinesterase and amyloid Beta fibrillization modulators. Synthesis and biological investigation” (ACS Med Chem Lett, 2013) are described below.

By UniProt entry, the sequences of proteins in these tests, tags left out. Where a name states a change or a piece, a line headed by the entry shows the natural chain unless it says otherwise.
UniProt P22303: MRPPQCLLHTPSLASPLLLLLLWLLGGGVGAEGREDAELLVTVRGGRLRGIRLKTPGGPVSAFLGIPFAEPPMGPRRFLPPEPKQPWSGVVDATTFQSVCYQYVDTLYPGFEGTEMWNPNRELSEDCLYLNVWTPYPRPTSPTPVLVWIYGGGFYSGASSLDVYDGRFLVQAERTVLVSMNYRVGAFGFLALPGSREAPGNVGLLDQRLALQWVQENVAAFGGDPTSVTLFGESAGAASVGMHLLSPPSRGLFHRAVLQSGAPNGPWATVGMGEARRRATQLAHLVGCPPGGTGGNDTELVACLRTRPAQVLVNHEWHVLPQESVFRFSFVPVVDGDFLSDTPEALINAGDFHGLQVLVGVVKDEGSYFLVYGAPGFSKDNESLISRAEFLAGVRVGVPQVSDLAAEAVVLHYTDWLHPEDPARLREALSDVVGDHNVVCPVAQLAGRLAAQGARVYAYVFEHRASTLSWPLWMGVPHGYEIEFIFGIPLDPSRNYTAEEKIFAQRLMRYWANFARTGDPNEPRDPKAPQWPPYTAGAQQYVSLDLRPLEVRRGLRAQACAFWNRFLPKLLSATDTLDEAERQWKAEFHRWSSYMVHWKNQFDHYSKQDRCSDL

In the assay the target is Acetylcholinesterase (Homo sapiens, UniProt P22303). In words: Inhibition of human acetylcholine esterase-induced amyloid beta (1 to 40) aggregation at 100 uM by ThT-based fluorescence assay.

On to `CN(CCCCNc1c2c(nc3ccccc13)CCCC2)CCCNc1c2c(nc3ccccc13)CCCC2`, for which the inhibition (in general, the relative decrease from the control value, in per cent) is 50%.
